pIC50, pKd: −log10 of the molar value. Where two headings read alike, the source gives them in different places.
Columns and labels:
[1] = system: drug-sensitive cell lines of Table 3; assay: Cell line growth retardation assay, sensitive cohort; settings: for Fold Diff: average IC50 of resistant cohort divided by average IC50 of sensitive cohort; for pIC50: read-out: AvgSen IC50, arithmetic mean of IC50s over the sensitive cohort of Table 3, 6 days growth
Procedure: (§1) Cells were seeded at densities of 1,000-5,000 cells per well in 48-well tissue culture plates. After a 24 h rest period, cells were treated with compound at 10 μM, 1 μM, […], 0.08 μM, 0.016 μM, and 0.0032 μM. A group of cells were treated with the vehicle in which the compound was prepared and served as a control. Prior to treatment, cells were counted and this count was used as a baseline for the calculation of growth inhibition. The cells were grown in the presence of compounds for 6 days and were counted on day 6. All cell counting was performed using a Synentec Cellavista plate imager. Growth inhibition was calculated as a ratio of cell population doublings in the presence of compound versus the absence of compound. […] IC50 values for each compound were calculated by fitting curves to data points from each dose-response assay using the Proc NLIN function in SAS for Windows version 9.2 (SAS Institute, Inc.).
(§2) Human cancer cell lines were grouped as “sensitive” or “resistant” to MCL1 inhibition based on whether their growth was retarded by AMG-176 (i.e., (1′S,11R,12S,14E,16S,16aR,18aR)-6′-Chloro-3′,4′,12,13,16,16a,17,18,18a,19-decahydro-16-methoxy-11,12-dimethyl-,Spiro[5,7-etheno-1H,11H-cyclobut[i][1,4]oxazepino[3,4-f][1,2,7]thiadiazacyclohexadecine-2(3H),1′(2′H)-naphthalen]-8(9H)-one 10,10-dioxide) or MIK665 (i.e., (R)-2-((5-(3-chloro-2-methyl-4-(2-(4-methylpiperazin-1-yl)ethoxy)phenyl)-6-(4-fluorophenyl)thieno[2,3-d]pyrimidin-4-yl)oxy)-3-(2-((2-(2-methoxyphenyl)pyrimidin-4-yl)methoxy)phenyl)propanoic acid) (data not shown; see Table 3). These sensitive and resistant cohorts were interrogated for response to each compound, and IC50S were calculated for each cell line using the same technique described above. Average IC50S for the sensitive (“AvgSen IC50”) and resistant (“AvgRes IC50”) cohorts were calculated as arithmetic means of the group, and fold differences (“Fold Diff”) between the resistant and sensitive cohorts were calculated by diving the average IC50 for the resistant cohort by the average IC50 for the sensitive cohort. “A” represents an IC50 of 1 μM or less, “B” represents an IC50 of greater than 1 μM to 5 μM, “C” represents an IC50 of greater than 5 μM, “+” represents a fold difference of 10 or more, and “−” represents a fold difference less than 10.

Chains of the proteins cited; added tags and fusions are not shown.
UniProt Q07817, whole entry: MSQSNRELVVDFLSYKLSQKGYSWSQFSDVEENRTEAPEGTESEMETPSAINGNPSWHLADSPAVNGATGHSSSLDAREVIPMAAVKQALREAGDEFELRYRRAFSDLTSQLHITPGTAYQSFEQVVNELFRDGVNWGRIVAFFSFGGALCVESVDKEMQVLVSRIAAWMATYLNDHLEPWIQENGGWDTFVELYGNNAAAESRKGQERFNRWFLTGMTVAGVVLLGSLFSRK
UniProt Q07820, whole entry: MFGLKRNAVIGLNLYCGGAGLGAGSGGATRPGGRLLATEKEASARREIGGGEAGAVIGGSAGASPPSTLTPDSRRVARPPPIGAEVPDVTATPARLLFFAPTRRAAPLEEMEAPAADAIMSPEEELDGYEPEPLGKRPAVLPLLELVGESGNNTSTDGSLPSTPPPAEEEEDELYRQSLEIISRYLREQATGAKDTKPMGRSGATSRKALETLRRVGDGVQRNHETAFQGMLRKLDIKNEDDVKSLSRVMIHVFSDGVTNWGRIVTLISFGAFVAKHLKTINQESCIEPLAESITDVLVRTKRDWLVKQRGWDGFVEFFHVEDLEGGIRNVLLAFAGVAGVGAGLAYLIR
UniProt P10415, whole entry: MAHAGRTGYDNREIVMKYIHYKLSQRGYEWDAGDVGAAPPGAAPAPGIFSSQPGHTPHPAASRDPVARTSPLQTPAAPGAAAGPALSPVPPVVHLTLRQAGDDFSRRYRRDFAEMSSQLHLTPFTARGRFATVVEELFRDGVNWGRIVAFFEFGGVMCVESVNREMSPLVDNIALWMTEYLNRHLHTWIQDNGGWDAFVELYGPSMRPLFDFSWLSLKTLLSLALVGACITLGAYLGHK

[2] = system: drug-resistant cell lines of Table 3; assay: Cell line growth retardation assay, resistant cohort; settings: read-out: AvgRes IC50, arithmetic mean of IC50s over the resistant cohort of Table 3, 6 days growth
Procedure: as §1, §2

BCLXL = BCLXL (Homo sapiens, UniProt Q07817); assay: BCLXL affinity assay (competition binding, qPCR readout); settings: read-out: BCLXL Kd; recombinant BCLXL, 11-point 3-fold dilution series
Procedure: (§3) Recombinant MCL1, BCL2 and BCXL proteins were prepared in either an E. coli host derived from the BL21 strain or in HEK-293 cells. The recombinant proteins were subsequently tagged with DNA for qPCR detection. Streptavidin-coated magnetic beads were treated for 30 minutes at room temperature with the respective biotinylated peptide ligands for each recombinant protein to generate affinity resins for the assays. The liganded beads were blocked with excess biotin and washed with blocking buffer (SeaBlock (Pierce), 1% BSA, 0.05% Tween 20, 1 mM DTT) to remove unbound ligand and to reduce nonspecific binding. Binding reactions were assembled by combining recombinant protein, liganded affinity beads, and test compounds in 1× binding buffer (20% SeaBlock, 0.17×PBS, 0.05% Tween 20, 6 mM DTT). Test compounds were prepared as 111X stocks in 100% DMSO. The compounds were then diluted directly into the assays such that the final concentration of DMSO was 0.9%. The assay plates were incubated at room temperature with shaking for 1 hour and the affinity beads were washed with wash buffer (1×PBS, 0.05% Tween 20). […] The recombinant protein concentration in the eluates was measured by qPCR. Kds were determined using an 11-point 3-fold compound dilution series with three DMSO control points. […]

MCL1 = MCL1 (Homo sapiens, UniProt Q07820); assay: MCL1 affinity assay (competition binding, qPCR readout); settings: read-out: MCL1 Kd, recombinant MCL1, 11-point 3-fold dilution series
Procedure: Recombinant MCL1, BCL2 and BCXL proteins were prepared in either an E. coli host derived from the BL21 strain or in HEK-293 cells. The recombinant proteins were subsequently tagged with DNA for qPCR detection. Streptavidin-coated magnetic beads were treated for 30 minutes at room temperature with the respective biotinylated peptide ligands for each recombinant protein to generate affinity resins for the assays. The liganded beads were blocked with excess biotin and washed with blocking buffer (SeaBlock (Pierce), 1% BSA, 0.05% Tween 20, 1 mM DTT) to remove unbound ligand and to reduce nonspecific binding. Binding reactions were assembled by combining recombinant protein, liganded affinity beads, and test compounds in 1× binding buffer (20% SeaBlock, 0.17×PBS, 0.05% Tween 20, 6 mM DTT). Test compounds were prepared as 111X stocks in 100% DMSO. The compounds were then diluted directly into the assays such that the final concentration of DMSO was 0.9%. The assay plates were incubated at room temperature with shaking for 1 hour and the affinity beads were washed with wash buffer (1×PBS, 0.05% Tween 20). The beads were then re-suspended in elution buffer (1×PBS, 0.05% Tween 20, 0.5 μM non-biotinylated affinity ligand) and incubated at room temperature with shaking for 30 minutes. The recombinant protein concentration in the eluates was measured by qPCR. Kds were determined using an 11-point 3-fold compound dilution series with three DMSO control points. “A*” represents a Kd of 100 nM or less, “A” represents a Kd of 101 nM to 500 nM, “B” represents a Kd of 501 nM to 1,500 nM, and “C” represents a Kd of greater than 1,500 nM.

BCL2 = BCL2 (Homo sapiens, UniProt P10415); assay: BCL2 affinity assay (competition binding, qPCR readout); settings: read-out: BCL2 Kd; recombinant BCL2, 11-point 3-fold dilution series
Procedure: as §3

[3] = tested form: possibly trifluoroacetate (inferred only)

| pKd (MCL1; [3]) | Structure (SMILES) | Fold Diff [1] | pIC50 [1] | pIC50 [2] | pKd (BCLXL) | pKd (MCL1) | pKd (BCL2) | Fold Diff [1, 3] | pIC50 [1, 3] | pIC50 [2, 3] |
| --- | --- | --- | --- | --- | --- | --- | --- | --- | --- | --- |
| – | COc1ccc(COc2ccccc2C[C@@H](Oc2nsc3cnc(-c4ccc(F)cc4)c(-c4ccc(OCCN5CCN(C)CC5)c(Cl)c4C)c23)C(=O)O)cc1 | − (“−” represents a fold difference less than 10) | 5.30 to 6.00 | < 5.30 | < 5.82 | < 5.82 | < 5.82 | – | – | – |
| – | COc1ccccc1-c1nccc(COc2ccccc2C[C@@H](Oc2nsc3cnc(-c4cnn(CC5CC5)c4)c(-c4ccc(OCCN5CCN(C)CC5)c(Cl)c4C)c23)C(=O)O)n1 | − (“−” represents a fold difference less than 10) | 5.30 to 6.00 | < 5.30 | – | 5.82 to 6.30 | – | – | – | – |
| – | COc1ccccc1-c1nccc(COc2ccccc2C[C@@H](Oc2nsc3cnc(-c4ccc(CCc5ccn(C)n5)cc4)c(-c4ccc(OCCN5CCN(C)CC5)c(Cl)c4C)c23)C(=O)O)n1 | + (“+” represents a fold difference of 10 or more) | > 6.00 | < 5.30 | – | > 7.00 | – | – | – | – |
| < 5.82 | COc1cccc(-c2ncc3snc(O[C@H](Cc4ccccc4OCc4ccnc(N5CCC(F)(F)CC5)n4)C(=O)O)c3c2-c2ccc(OCCN3CCN(C)CC3)c(Cl)c2C)c1 | – | – | – | – | – | – | − (“−” represents a fold difference less than 10) | 5.30 to 6.00 | < 5.30 |
| – | Cc1c(-c2c(-c3cccc4c3CCCC4)ncc3snc(O[C@H](Cc4ccccc4OCc4ccnn4CC(F)(F)F)C(=O)O)c23)ccc(OCCN2CCN(C)CC2)c1Cl | − (“−” represents a fold difference less than 10) | < 5.30 | < 5.30 | < 5.82 | < 5.82 | < 5.82 | – | – | – |
